Test results taken from patent publication US20250186493A1, “ARTIFICIAL ANTIGEN-SPECIFIC IMMUNOREGULATORY T (AIRT) CELLS” (Seattle Children's Hospital (dba Seattle Children's …, priority 2020, published 2025).

Tests used:
[1] = system: IL-2 CISC (FRB-IL2RB and FKBP-IL2RG); assay: Enrichment/expansion of split-CISC or split-DISC edited human CD4+ T cells with Rapalog, Rapamycin or IL-2; type: cell-based
human CD4+ Teff = assay: In vitro suppression assay with human Teff (CTV dilution, intracellular cytokines); type: cell-based; settings: T1D2 EngTregs

Substance: IL-2: recombinant human IL-2 used as comparator culture cytokine
- FOXP3/T1D4 double positive cells at day 7 ([1]; 100 nM AP21967 or 50 ng/mL IL-2, #3240/#3243): 1.47%
- GFP/mCherry double positive cells ([1]; 100 nM rapalog, over 8 days, from 1.4%, TRAC split IL-2 CISC): no expansion was observed
- cell viability ([1]; 7 days in 100 nM AP21967 or 50 ng/mL IL-2): 95%
- GFP/mCherry double positive cells ([1]; 7 days of enrichment, donor R003657, #3207/#3208): no enrichment
- FOXP3/T1D4 double-positive cells ([1]; 7 days of treatment, cells recovered in 2.5% FBS, #3240/#3243): 1.97%
- FOXP3/T1D4-positive cells ([1]; after 8 days of treatment, from 0.65%, #3240/#3243): 1.1%
- effect of exogenous IL-2 on EngTreg suppression of polyclonal islet-specific Teff proliferation (human CD4+ Teff): no significant effect
